Assay results taken from US20240139185A1, “COMPOUNDS THAT PARTICIPATE IN COOPERATIVE BINDING AND USES THEREOF” (Revolution Medicines, Inc., priority 2018, published 2024).

How the values were obtained:
[1] = biological target: BRAF-GTP-KRAS-G12C complex (Homo sapiens, UniProt P01116+P62937, G12C); assay: KRAS-BRAF complex disruption through competition with CYPA-compound by TR-FRET; settings: read-out: BRAF-GTP-KRAS-G12C Disruption; biochemical BRAF-KRAS G12C-GTP disruption assay EC50, with CYPA
Experimental: In this example, TR-FRET was used to measure the compound-facilitated disruption of a KRAS-BRAF complex. A mixture of tagless Cyclophilin A, His6-KRAS G12C-GMP-PNP, and GST-BRAF RAS binding domain was added to a 384-well assay plate containing compounds of the invention and incubated for 3 hours. A mixture of Anti-His Eu-W1024 and anti-GST allophycocyanin was then added and the reaction was incubated for an additional 1.5 hours. TR-FRET signal was read on an EnVision microplate reader (Perkin Elmer, Ex 320 nm, Em 665/615 nm). Compounds that facilitate disruption of a KRAS_BRAF complex were identified as those eliciting a decrease in the TR-FRET ratio relative to DMSO control wells. To determine the presenter-dependence of the compound-mediated KRAS-BRAF complex disruption, Cyclophilin A was left out of the initial incubation (see Table 5). To determine G12C specificity of the compound-mediated KRAS-BRAF complex disruption, wild-type KRAS was used instead of G12C KRAS (see Table 5).
Reagents and Instrument • Tagless CYPA; 519 μM in PBS buffer, pH 7.4 • GST BRAF; 110 μM in PBS buffer, pH 7.4 • His6-KRASG12C-GMP-PNP; 50 μM in PBS buffer, pH 7.4 • His6-KRASWT-GMP-PNP; 40 μM in PBS buffer, pH 7.4 • Anti-His Eu-W1024 (LANCE® Eu-W1024; Perkin Elmer) • Anti-GST allophycocyanin (Anti-GST IgG conjugated to SureLight®-Allophycocyanin; Perkin Elmer; Product Number AD0059G) • Test compounds, 10 mM in 100% DMSO • EnVision (Perkin Elmer) • Combi MultiDrop liquid dispenser with 8-channel small volume cassette • 384-well ProxiPlate (black)
Experimental Protocol • 1. Use Mosquito to dispense 100 nL/well of compounds (varying concentration in […]) into 384-well black ProxiPlate to make assay-ready-plate (ARP). • 2. Make assay buffer containing 25 mM Hepes pH 7.3, 100 mM NaCl, 5 mM MgCl2, 0.05% BSA, and 0.002% Tween-20. • 3. Make PRE-MIX A: delivers final concentrations of 50 nM of His6-KRas G12C-GTP (1-169) and 500 nM of tagless CypA (1-165) in assay buffer. • a. For presenter dependence experiments, omit addition of tagless CypA • b. For G12C/wt specificity experiments, substitute His6-KRas WT-GTP (1-169) for His6-KRas G12C-GTP (1-169) • 4. Use MultiDrop Combi to dispense PRE-MIX A into ARP, 7 μl/well. Incubate 3 hr at room temperature. • 5. Make PRE-MIX B: delivers final concentrations of 10 nM of anti-His Eu-W1024 and 50 nM of anti-GST APC. • 6. Use MultiDrop Combi to dispense PRE-MIX B into ARP, 3 μl/well. Shake briefly on Combi and incubate 1.5 hr at room temperature. • 7. Read on EnVision (Ex: 320 nm; Em1: 615 nm; Em2: 665 nm). • 8. Data is processed using Dotmatics. Curves are fit using a 4-parameter non-linear fit to determine the EC50 value for formation of the ternary complex.

cyclophilin A (CYPA) = cyclophilin A (CYPA) (Homo sapiens, UniProt P62937); assay: CYPA-compound binary complex formation by SPR; settings: read-out: CYPA Binding Affinity
Experimental: In order to determine the affinity of compounds of the invention for cyclophilin A (CYPA), we employed surface plasmon resonance binding analysis using the following reagents, instruments and protocol as supplied by the instrument manufacturer.
Reagents and Instrument • 1. Instrument: Biacore S200 (GE Healthcare Life Sciences) • 2. Running buffer: 1×HBS-P+ (1×HBS supplemented with 0.05% Tween20), pH7.4, and 2% DMSO. • 3. Ligand: CypA-Avi • 4. Analyte: Serial dilution of WDB compounds from 50 μM to 0 μM, 2-fold dilution, 10 points (10 mM stock concentration). • 5. Sensor kit: Biotin CAPture Kit (BR28-9202-34, GE Healthcare Life Sciences) • 6. Regeneration buffer: 1 volume of 1 M NaOH and 3 volumes of 8 M guanidine hydrochloride (supplied with CAPture Kit, BR28-9202-34, GE Healthcare Life Sciences)
Experimental Procedure • 1. Capture of CAPreagent: 2 μl/min for 60 seconds. • 2. Immobilization of ligand CypA: Use Fc1 as the reference cell; immobilize CypA at 4 μg/ml using 5 μl/min flowrate on Fc2 (60s), Fc3 (80s) and Fc4 (80s), respectively. • 3. Binding of analytes: Inject WDB compound dilutions sequentially at 50 μl/min for association of 60 seconds. And then let it dissociates in buffer at 50 μl/min for 60 seconds. • 4. Regeneration: 2 injections of regeneration buffer at 30 μl/min for 60 seconds to regenerate the chip surface. • 5. Solvent correction: Run solvent correction at beginning and the end of the run. If run more than 6 compounds, add additional solvent correction every 6 compounds. • 6. Data fitting with built-in Biacore Evaluation Software: Steady-state fitting.

pERK in H358 cells = assay: pERK inhibition in H358 cells; settings: read-out: Cellular pERK inhibition, 4 hours treatment
Experimental: H358 cells (5500 cells) derived from a human lung cancer were plated in a 96 well plate in media (100 uL, RPMI with 10% FBS). After 24 hours, cells were treated for 4 hours with compound or DMSO. Cells were washed twice with room temperature TBS (200 uL) and fixed for 20 minutes with 4% paraformaldehyde diluted with TBS (150 uL). Cells were washed four times for five minutes with 0.1% TritonX/TBS (150 uL) to permeabilize the membrane. Cells were incubated with TBS blocking buffer (100 uL) at room temperature for 60 minutes. Primary antibody (Phospho-p44/42 MAPK (Erk1/2) (Thr202/Tyr204) (D13.14.4E) XP® Rabbit mAb #4370, Cell Signaling Technology; 1:200) was added, and the cells were incubated overnight at 4 C. The cells were washed four times for five minutes with 0.1% Tween 20/TBS (150 uL). Secondary antibody (IRDye® 800CW Goat-Anti-Rabbit IgG, Li-Cor Biosciences; 1:1000) and DRAQ5™ (Invitrogen; 1:2000) was added, and the cells were incubated for 1 hour at room temperature. The cells were washed four times for five minutes with 0.1% Tween 20/TBS (150 uL) and scanned using the LICOR (700 and 800 nm).

Row | SMILES | EC50 [1] [µM] | Kd (cyclophilin A (CYPA)) [µM] | IC50 (pERK in H358 cells) [µM]
1 | C=CC(=O)N1CCN([C@H](C(=O)N[C@H]2Cc3cc(O)cc(c3)-c3ccc4nc(C)n(c4c3)C(C)CCOC(=O)[C@@H]3CCCN(N3)C2=O)C(C)C)C1=O (stereo partly shown) | > 5 | < 5 | –
2 | Cc1nc2ccc3cc2n1CC(F)(F)COC(=O)[C@@H]1CCCN(N1)C(=O)[C@@H](NC(=O)[C@H](C(C)C)N(C)C(=O)C1CN(C(=O)CCl)C1)Cc1cc(O)cc-3c1 | 0.5 to 5 | < 5 | –
3 | CC(C)[C@@H](C(=O)N[C@H]1Cc2cc(O)cc(c2)-c2ccc3c(C#N)cn(c3c2)CC(C)(C)COC(=O)[C@@H]2CCCN(N2)C1=O)N(C)C(=O)CN1CC=CC1=O | > 5 | 5 to 15 | –
4 | C=CC(=O)N1CC[C@H](C(=O)N(C)[C@H](C(=O)N[C@H]2Cc3cc(O)cc(c3)-c3ccc4c(c3)N(CC(C)(C)COC(=O)[C@@H]3CCCN(N3)C2=O)CC42COc3ccccc32)C(C)C)C1 (single isomer, unassigned) [402] | < 0.5 | – | < 1
5 | COc1cccc(-c2nc3ccc4cc3n2CCCOC(=O)[C@@H]2CCCN(N2)C(=O)[C@@H](NC(=O)[C@H](C(C)C)N(C)C(=O)C2CN(C(=O)CCl)C2)Cc2cc(O)cc-4c2)c1 | < 0.5 | < 5 | –
6 | C=CC(=O)N1CCN([C@H](C(=O)N[C@H]2Cc3cc(O)cc(c3)-c3ccc4ncn(c4c3)CCOC(=O)[C@@H]3CCCN(N3)C2=O)C(C)C)C1=O | > 5 | < 5 | –
7 | C=CC(=O)N1CCN([C@H](C(=O)N[C@H]2Cc3cc(O)cc(c3)-c3cnc4ccn(c4c3)CCCOC(=O)[C@@H]3CCCN(N3)C2=O)C(C)C)C1=O | > 5 | < 5 | –
8 | CC(C)[C@@H](C(=O)N[C@H]1Cc2cc(O)cc(c2)-c2ccc3nc(-c4ccccn4)n(c3c2)CCCOC(=O)[C@@H]2CCCN(N2)C1=O)N(C)C(=O)C1CN(C(=O)CCl)C1 | > 5 | < 5 | –
9 | C/C=C/S(=O)(=O)CC(=O)N(C)[C@H](C(=O)N[C@H]1Cc2cc(O)cc(c2)-c2ccc3ncn(c3c2)CCCOC(=O)[C@@H]2CCCN(N2)C1=O)C(C)C | > 5 | < 5 | –
10 | C=CC(=O)N1CCN([C@H](C(=O)N[C@H]2Cc3cc(O)cc(c3)-c3ccc4c(c3)N(CCCOC(=O)[C@@H]3CCCN(N3)C2=O)CCO4)C(C)C)C1=O | > 5 | < 5 | –
11 | C=CC(=O)N1CC(C(=O)N(C)[C@H](C(=O)N[C@H]2Cc3cc(O)cc(c3)-c3ccc4ncn(c4c3)CCCOC(=O)[C@@H]3CCCN(N3)C2=O)C(C)C)C1 | > 5 | 5 to 15 | –
12 | C=CC(=O)N1CC(C(=O)N(C)[C@H](C(=O)N[C@H]2Cc3cc(O)cc(c3)-c3ccc4c(C5=CCN(C)CC5)nn(c4c3)CC(C)(C)COC(=O)[C@@H]3CCCN(N3)C2=O)C(C)C)C1 | 0.5 to 5 | > 15 | –
13 | C=CS(=O)(=O)N1CC(C(=O)N(C)[C@H](C(=O)N[C@H]2Cc3cc(O)cc(c3)-c3ccc4ncn(c4c3)CCCOC(=O)[C@@H]3CCCN(N3)C2=O)C(C)C)C1 | 0.5 to 5 | 5 to 15 | –
14 | C=CC(=O)N1CCN([C@H](C(=O)N[C@H]2Cc3cc(O)cc(c3)-c3cc(C#N)c4ncn(c4c3)CCCOC(=O)[C@@H]3CCCN(N3)C2=O)C(C)C)C1=O | > 5 | < 5 | –
15 | CC(C)[C@@H](C(=O)N[C@H]1Cc2cc(O)cc(c2)-c2ccc3ncn(c3c2)CCCOC(=O)[C@@H]2CCCN(N2)C1=O)N(C)C(=O)CC1CC=CC1=O (single isomer, unassigned) | > 5 | > 15 | –

Now from value to compound:

Row | EC50 [1] [µM] | Kd (cyclophilin A (CYPA)) [µM] | IC50 (pERK in H358 cells) [µM] | SMILES
16 | 0.5 to 5 | < 5 | – | C=CC(=O)N1CCN([C@H](C(=O)N[C@H]2Cc3cc(O)cc(c3)-c3ccc4c5cnccc5n(c4c3)CCCOC(=O)[C@@H]3CCCN(N3)C2=O)C(C)C)C1=O
17 | 0.5 to 5 | 5 to 15 | – | CC(C)[C@@H](C(=O)N[C@H]1Cc2cc(O)cc(c2)-c2ccc3nc(-c4cccc(C#N)c4)n(c3c2)CCCOC(=O)[C@@H]2CCCN(N2)C1=O)N(C)C(=O)C1CN(C(=O)CCl)C1
18 | > 5 | < 5 | – | C=CS(=O)(=O)N1CCN([C@H](C(=O)N[C@H]2Cc3cc(O)cc(c3)-c3ccc4ncn(c4c3)CCCOC(=O)[C@@H]3CCCN(N3)C2=O)C(C)C)C(=O)C1
19 | > 5 | – | 1 to 10 | CC1COC(=O)[C@@H]2CCCN(N2)C(=O)[C@@H](NC(=O)[C@H](C(C)C)N(C)C(=O)C2CN(C(=O)[C@@H](C)Cl)C2)Cc2cc(O)cc(c2)-c2ccc3c(c2)c(cn3C(C)(C)C#N)C1 (single isomer, unassigned) [310]
20 | 0.5 to 5 | – | > 10 | CC(C)[C@@H](C(=O)N[C@H]1Cc2cc(O)cc(c2)-c2ccc3c(-c4cccc5ncoc45)cn(c3c2)CC(C)(C)COC(=O)[C@@H]2CCCN(N2)C1=O)N(C)C(=O)C1CN(C(=O)[C@@H](C)Cl)C1
21 | > 5 | – | 1 to 10 | C=CC(=O)N1CC[C@H](C(=O)N(C)[C@H](C(=O)N[C@H]2Cc3cc(O)cc(c3)-c3ccc4c(c3)c(c(C#N)n4CC)CC(C)COC(=O)[C@@H]3CCCN(N3)C2=O)C(C)C)C1 (single isomer, unassigned) [373]
22 | 0.5 to 5 | 5 to 15 | – | CC(C)[C@H](NC(=O)C1CN(C(=O)CCl)C1)C(=O)N[C@H]1Cc2cc(O)cc(c2)-c2ccc3c(C#N)cn(c3c2)CC(C)(C)COC(=O)[C@@H]2CCCN(N2)C1=O
23 | – | < 5 | – | C=CC(=O)N1CCN([C@H](C(=O)N[C@H]2Cc3cc(O)cc(c3)-c3ccc4nccc(c4c3)CCOC(=O)[C@@H]3CCCN(N3)C2=O)C(C)C)C1=O
24 | > 5 | – | – | C=CC(=O)N1CCN([C@H](C(=O)N[C@H]2Cc3cccc(c3)-c3ccc4ncn(c4c3)CCCOC(=O)[C@@H]3CCCN(N3)C2=O)C(C)C)C1=O
